The text below walks through data of publication PMC10810011 (Expert opinion on drug delivery, 2023).

Sequences of proteins named here, by UniProt entry; tags and fusion partners are left off.
UniProt P08588, whole entry: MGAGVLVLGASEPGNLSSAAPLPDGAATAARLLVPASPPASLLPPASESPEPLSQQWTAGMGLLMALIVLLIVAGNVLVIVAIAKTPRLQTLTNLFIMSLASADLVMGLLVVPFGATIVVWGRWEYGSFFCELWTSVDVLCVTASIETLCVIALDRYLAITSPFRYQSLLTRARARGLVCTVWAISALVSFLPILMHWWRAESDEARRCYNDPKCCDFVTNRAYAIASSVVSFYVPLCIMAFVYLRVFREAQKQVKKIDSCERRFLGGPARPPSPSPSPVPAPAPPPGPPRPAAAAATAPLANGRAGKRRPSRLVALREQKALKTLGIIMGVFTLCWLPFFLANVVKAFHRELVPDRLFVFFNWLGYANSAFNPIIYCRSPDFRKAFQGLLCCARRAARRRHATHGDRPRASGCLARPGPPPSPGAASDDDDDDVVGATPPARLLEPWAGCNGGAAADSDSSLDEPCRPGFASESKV

In this assay the target is beta1 adrenergic (Homo sapiens, UniProt P08588). As to the kind of experiment: InVEST radioligand filter binding, beta1 adrenergic.

`C=CCc1ccccc1OCC(O)CNC(C)C` (stereo not shown) [alprenolol, reference compound]: the IC50 came to 10.2 nM.

Broadly, the IC50 is the point on the concentration scale where inhibition reaches its midpoint.
